From ChEMBL document CHEMBL1938272 (Bioorg Med Chem, 2012)

Test system: Radical scavenging activity
Assay: Antioxidant activity assessed as DPPH free radical scavenging activity at 400 uM after 30 mins by spectrophotometry
Assay type: functional

Row | Compound | inhibition
1 | c1ccc(-c2nsc(-c3ccccc3)n2)cc1 | 8.26%
2 | Nc1ccc(-c2nsc(-c3ccc(N)cc3)n2)cc1 | 33.1%
3 | Ic1ccc(-c2nsc(-c3ccc(I)cc3)n2)cc1 | 16.2%

Test system: HEK293
Assay: Inhibition of TNFalpha-activated NF-kappaB expressed in HEK293 cells at 50 uM by luciferase reporter gene assay
Assay type: cell-based

Row | Compound | inhibition
4 | N#Cc1cccc(-c2nsc(-c3cccc(C#N)c3)n2)c1 | 46.5%
5 | Cc1ccc(-c2nsc(-c3ccc(C)cc3)n2)cc1 | 35.4%
6 | Oc1cccc(-c2nsc(-c3cccc(O)c3)n2)c1 | 60.4%
7 | Clc1ccc(Cl)c(-c2nsc(-c3cc(Cl)ccc3Cl)n2)c1 | 40.3%
8 | N#Cc1ccc(-c2nsc(-c3ccc(C#N)cc3)n2)cc1 | 18.2%
9 | Fc1ccccc1-c1nsc(-c2ccccc2F)n1 | 28.3%
10 | Fc1cccc(-c2nsc(-c3cccc(F)c3)n2)c1 | 15.4%
11 | Ic1ccccc1-c1nsc(-c2ccccc2I)n1 | 10.9%
12 | O=[N+]([O-])c1ccc(-c2nsc(-c3ccc([N+](=O)[O-])cc3)n2)cc1 | 15.9%
13 | c1ccc2cc(-c3nsc(-c4ccc5ccccc5c4)n3)ccc2c1 | 48.5%
14 | CCCCc1ccc(-c2nsc(-c3ccc(CCCC)cc3)n2)cc1 | 39.4%
15 | c1ccc(-c2nsc(-c3ccccc3)n2)cc1 | 82.4%
16 | Clc1ccccc1-c1nsc(-c2ccccc2Cl)n1 | 25.3%
17 | COc1ccc(-c2nsc(-c3ccc(OC)cc3)n2)cc1 | 21.2%
18 | Nc1ccc(-c2nsc(-c3ccc(N)cc3)n2)cc1 | 90.6%
19 | Clc1ccc(-c2nsc(-c3ccc(Cl)cc3Cl)n2)c(Cl)c1 | 45.8%
20 | Oc1ccc(-c2nsc(-c3ccc(O)cc3)n2)cc1 | 78.9%
21 | Cc1cccc(-c2nsc(-c3cccc(C)c3)n2)c1 | 84.4%
22 | Clc1ccc(-c2nsc(-c3ccc(Cl)c(Cl)c3)n2)cc1Cl | 38.3%
